Earlier results in patent US4897502A, “Process for making solid polyhalotriaryl phosphate esters” (priority 1987, dated 1990).

Conditions: Table I

## amyl alcohol [amyl alcohol (pract.)]
  Hildebrand Solubility Parameter: 22.0 SI
